# scFv variants of Ab-14 (light chain) against a SARS-CoV-2 spike peptide

Binding partner: SARS-CoV-2 spike HR2 peptide, sequence PDVDLGDISGINAS.

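The starting antibody came from a phage panning campaign against this peptide. Designed CDR sequences, proposed from the first random library and measured here. Their group label is 14L_En_Gen (En: ensemble of fine-tuned language models; Gen: genetic algorithm). Affinity was read by AlphaSeq, a pooled yeast mating assay with surface-displayed partners. Binding brings cells together so that they mate, and sequencing counts the barcode pairs among the diploids. Scores were corrected for input abundance and mapped to Kd with protein pairs of known affinity run in the same pool. Mating was done six times.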

Each scFv is VH, a 15-residue (Gly4Ser)3 linker, VL, as in the parent Ab-14, and differs from it in the CDRs of the light chain only.
VH: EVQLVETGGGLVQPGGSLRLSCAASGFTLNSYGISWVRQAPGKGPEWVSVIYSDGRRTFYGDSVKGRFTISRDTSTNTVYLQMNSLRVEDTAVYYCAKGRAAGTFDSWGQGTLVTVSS
VL: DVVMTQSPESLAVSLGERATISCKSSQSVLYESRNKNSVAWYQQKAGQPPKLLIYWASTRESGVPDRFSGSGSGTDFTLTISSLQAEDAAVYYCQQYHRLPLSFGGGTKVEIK

Each variant is given by its three light chain CDRs, as the data file delimits them; those of the parent are KSSQSVLYESRNKNSVA, WASTRES, QQYHRLPLS.
The read-out is the apparent dissociation constant on a log10 scale (nM): the lower, the stronger.
Where no diploid with the target was found in that replicate, the entry reads "n.d.": below detection, most likely a poor binder, though not proof of it.
The authors averaged sequences with at least three values out of six and counted those with two or fewer as poor binders.

CDR-L1	CDR-L2	CDR-L3	replicates, log10 nM	signal with controls
KISMLHNQTFSQSNNVA	EMVTREK	QQYNRLPLS	0.84 0.49 0.31 0.75 0.55 0.79	1/18 (2.58)
MVQQLYNMGTFAINSVA	QASTRNE	QQYDRLPLM	1.45 1.43 2.00 1.07 1.83 1.33	0/18
MISQLMNMGQFAINSVA	QATIRNS	QQYDRLPLI	0.89 1.94 1.13 1.56 1.64 1.74	1/18 (1.54)
MVNGVLDHLSKNTNNVA	ETSTRES	QQYDRLPLQ	0.98 0.74 0.56 0.57 0.58 1.11	0/18
MVSQVMLWGLHAKNSIA	EAQMRLN	QQYDRLPLF	n.d. n.d. 1.26 n.d. n.d. n.d.	0/18
KLTMITGLEKVSTNNVA	EMETREK	QQYNRLPLS	0.57 0.60 0.58 0.53 0.58 0.68	0/18
IVSQLMLWGYHAKNSIA	EAQTRLN	QQYERLPLF	n.d. 1.80 n.d. n.d. n.d. 1.60	1/18 (1.75)
NIYQAMHTLMQAKNNIA	DVTNRNN	QQYHRLPLS	1.02 1.34 n.d. 2.74 1.36 1.74	0/18
MISQILNMGTFAINSVA	QASLRNE	QQYDRLPLM	1.70 n.d. 2.59 n.d. 1.84 2.42	0/18
HMSMLTMMGMRHRNSVA	QMTMREN	QQYDRLPLV	1.20 1.07 1.41 0.71 0.60 1.03	0/18
TISQLMNMGQFAINSVA	QASIRNH	QQYDRLPLI	1.40 1.29 1.65 1.50 1.22 1.71	1/18 (3.95)
KISMMINMTFEQSNNVA	EMVTRCK	QQYNRLPLS	0.87 0.31 0.49 0.27 0.34 0.81	0/18
HITYGMMVAGRHSSSIA	QAEERAK	QQYDRLPLM	0.59 0.81 1.12 0.58 0.31 0.60	0/18
KISQMVRVGSTASNSIA	EEQTRAK	QQYHRLPLA	n.d. n.d. n.d. n.d. n.d. n.d.	0/18
MMSSLMGYESRHINNVA	QTSTREQ	QQYDRLPLI	0.37 0.14 0.29 0.08 0.33 0.45	0/18
QISGITGHMSTLKNNVA	EMVTRAN	QQYNRLPLS	0.55 0.48 0.61 0.28 0.25 0.54	0/18
MISQLHNMGTFAINSVA	QASIRNA	QQYDRLPLA	1.46 1.31 1.30 1.08 1.53 1.56	3/18 (2.84)
KIGMTLNQLMHQKNNVA	DLVMREN	QQYHRLPLS	0.15 0.53 0.14 0.23 0.10 0.25	0/18
HMSMLSLMGSRNRNSVA	QMTTREN	QQYDRLPLI	1.89 0.77 0.94 1.07 0.89 0.91	0/18
KLVQFMNRGTHHTSNIA	DAQDRID	QQYARLPLA	1.44 1.16 1.31 1.15 1.23 1.12	1/18 (2.66)
MMSQVTGLGQRHRNNVA	QTSTREE	QQYDRLPLV	0.52 0.26 0.46 0.29 0.54 0.49	0/18
QIYQAMHTLSQKKNNVA	DVNERGQ	QQYFRLPLS	-0.12 0.48 -0.06 0.08 -0.03 -0.34	0/18
KLYEMSYELSGKTHSVA	DNSTRGD	QQYFRLPLD	n.d. n.d. n.d. 3.15 n.d. 2.38	0/18
QIYQAMHTLSQAKDNVA	DVNERGQ	QQYFRLPLS	0.25 0.02 0.08 0.18 -0.10 0.16	0/18
HMSALTLSGMYHRNSVA	QMTTREN	QQYDHLPLS	1.17 1.08 1.20 0.60 0.77 1.00	2/18 (2.02)
KLGMTLNQLMHKKNNVA	DLVERAN	QQYFRLPLS	-0.04 0.31 -0.28 0.09 -0.10 -0.12	1/18 (1.49)
HITMGMYVAGRHHSSIA	QAEERAK	QQYDRLPLI	2.27 1.84 1.36 1.13 1.03 0.92	1/18 (2.64)
MLSQMWALGQKVKNSVA	QASMRFN	QQYDRLPLE	1.24 1.97 2.20 0.68 1.29 2.05	0/18
MMSQVTGMGSRQRNNVA	QTSTREP	QQYDRLPLV	0.91 0.82 0.69 0.82 0.82 0.89	5/18 (3.15)
HMSAVTMMGSRHRNSVA	QMTTREN	QQYDHLPLS	1.19 1.35 0.54 1.09 0.98 1.32	0/18
KIGATLNTLYEKKNNVA	DLVVREN	QQYHRLPLS	0.75 0.32 0.13 0.26 0.51 0.55	0/18
HMSMLTLTGMRQKNSVA	QMTTREN	QQYDRLPLA	n.d. n.d. 1.80 1.19 1.47 1.21	0/18

For reference, 2 entries of the list once more:

CDR-L1,CDR-L2,CDR-L3,"replicates, log10 nM",signal with controls
KIGATLNTLYEKKNNVA,DLVVREN,QQYHRLPLS,0.75 0.32 0.13 0.26 0.51 0.55,0/18
QISGITGHMSTLKNNVA,EMVTRAN,QQYNRLPLS,0.55 0.48 0.61 0.28 0.25 0.54,0/18

Three control strains display no target. For all light chain designs, 4% of the pairings with them gave a signal, with a median of 2.64 and one signal in twenty below 1.59, so weak values seen in few replicates may be background. The control count says in how many pairings with the empty strains this scFv gave a signal, with their mean in brackets.
Of ten entries with the parent sequence, four were seen in most replicates (averages 0.34 to 2.37), three in one and three in none, so single entries are noisy.
Values of this round are not directly comparable with the first-round values of the same sequences.

The measurements come from Li et al. 2023 (doi:10.1038/s41467-023-39022-2) through the FLAb antibody collection.